The text below walks through data of ChEMBL document CHEMBL1140995, “Synthesis and biological evaluation of aminomethylphenol derivatives as inhibitors of the murine GABA transporters mGAT1-mGAT4” (Eur J Med Chem, 2008).

For this test, the target named is Sodium- and chloride-dependent GABA transporter 1 (Mus musculus, UniProt P31648). As to the kind of experiment: Inhibition of [3H]GABA uptake at mouse GAT1 expressed in HEK cells. The test is classed as cell-based, HEK293. The method in brief: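 Stably transfected HEK cells were trypsinized, washed in PBS, and resuspended in Krebs-Tris buffer pH 7.2 at about 100,000 cells/well. They were pre-equilibrated 25 min at 37 °C with compound in 1% DMSO, then given 8 nM [³H]GABA plus 32 nM unlabeled GABA for 4 min.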

The structures appear in SMILES notation.

The IC50 is the concentration that gives 50% inhibition. Low readings indicate inhibition by little substance, high ones a need for much substance. In turn, `O=C(O)[C@@H]1CCCNC1` [(R)-NIPECOTIC ACID] showed an IC50 of 8.51 µM.

Consider `O=C(O)C1CCCNC1` (stereo not drawn) [NIPECOTIC ACID], for which half-maximal inhibition (IC50) required 13.2 µM.

`O=C(O)[C@H]1CCCNC1` [(S)-NIPECOTIC ACID] gave an IC50 of 74.1 µM.
